Like-named read-outs stand apart in the source and are kept apart here.

The target of experiment [1] is T1, SMVT (Homo sapiens, UniProt Q9Y289).
T1 sequence (Q9Y289 1-635): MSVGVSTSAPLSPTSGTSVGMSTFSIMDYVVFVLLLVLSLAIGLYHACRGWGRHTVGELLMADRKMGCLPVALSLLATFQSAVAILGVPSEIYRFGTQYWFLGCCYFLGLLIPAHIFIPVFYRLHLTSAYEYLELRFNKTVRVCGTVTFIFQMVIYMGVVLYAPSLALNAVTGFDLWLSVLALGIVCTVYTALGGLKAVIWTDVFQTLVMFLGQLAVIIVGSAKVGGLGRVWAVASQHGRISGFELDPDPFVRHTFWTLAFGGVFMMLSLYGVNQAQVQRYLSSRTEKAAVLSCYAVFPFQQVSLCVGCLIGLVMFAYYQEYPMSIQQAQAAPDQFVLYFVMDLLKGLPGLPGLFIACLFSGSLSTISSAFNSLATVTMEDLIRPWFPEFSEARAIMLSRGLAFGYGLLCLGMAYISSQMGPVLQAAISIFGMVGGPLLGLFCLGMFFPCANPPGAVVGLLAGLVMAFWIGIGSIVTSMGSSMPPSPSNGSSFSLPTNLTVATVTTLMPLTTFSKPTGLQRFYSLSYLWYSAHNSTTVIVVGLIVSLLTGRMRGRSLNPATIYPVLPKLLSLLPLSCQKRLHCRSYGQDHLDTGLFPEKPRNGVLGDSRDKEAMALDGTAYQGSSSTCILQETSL

Experiment [2] deals with T1, SMVT. The source holds these as a separate data set.
Another experiment has as its target T2, SMVT in BBMECs (Bos taurus, UniProt A1L530).
T2 construct: endogenous in cells; host or cells: primary bovine brain microvessel endothelial cells (BBMECs)
T2 sequence (A1L530 1-638): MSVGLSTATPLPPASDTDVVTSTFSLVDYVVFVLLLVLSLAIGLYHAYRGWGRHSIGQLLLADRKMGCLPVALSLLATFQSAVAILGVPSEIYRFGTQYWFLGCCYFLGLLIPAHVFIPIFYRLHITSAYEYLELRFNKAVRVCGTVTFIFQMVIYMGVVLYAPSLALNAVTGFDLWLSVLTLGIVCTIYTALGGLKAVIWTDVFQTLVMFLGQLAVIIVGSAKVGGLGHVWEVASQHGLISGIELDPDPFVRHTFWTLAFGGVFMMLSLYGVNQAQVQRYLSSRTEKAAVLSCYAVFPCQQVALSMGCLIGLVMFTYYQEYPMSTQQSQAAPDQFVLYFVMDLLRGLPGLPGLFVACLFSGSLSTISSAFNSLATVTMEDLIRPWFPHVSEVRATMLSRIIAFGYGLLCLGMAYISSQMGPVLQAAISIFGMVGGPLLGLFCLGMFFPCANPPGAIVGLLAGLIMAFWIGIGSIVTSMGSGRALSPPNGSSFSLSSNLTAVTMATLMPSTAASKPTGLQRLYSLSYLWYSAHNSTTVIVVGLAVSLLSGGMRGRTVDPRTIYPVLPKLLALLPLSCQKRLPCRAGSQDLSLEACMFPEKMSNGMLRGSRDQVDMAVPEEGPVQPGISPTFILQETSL
The experiment can be described thus: Biotin uptake by BBMECs (characterization of biotin transporter). Format: in vitro ADME, bovine. The following applies: Hill equation.

A word on the Ki: it is a dissociation constant, usually derived from enzyme kinetics or from competition with a known ligand. The low end stands for tighter binding, the high end for weaker binding. In the case of `O=C(O)CCCC[C@@H]1SC[C@@H]2NC(=O)N[C@@H]21` [Biotin, biotin], the values for the Ki on SMVT [1] and at SMVT [2] were 6.78 µM and 7.88 µM, respectively. For the same compound, the “Na+-biotin coupling ratio for SMVT” value on SMVT in BBMECs worked out at 1.

The values above are taken from patent US7740882B2, “Enhanced oral and transcompartmental delivery of therapeutic or diagnostic agents” (priority 2001, dated 2010).
